# Data published in ChEMBL document CHEMBL5029189, “Development of a 1,2,4-Triazole-Based Lead Tankyrase Inhibitor: Part II” (J Med Chem, 2021).
# How the values were obtained:
# RKO = assay: cells; conditions: Homo sapiens, 120 h
# [1] = Stability in mouse plasma assessed as half life; assay type: ADME, cell-free
compound,measurement,setting,value
CCOc1ccc(-c2nnc([C@H]3C[C@H](NC(=O)c4ccccn4)C3)n2-c2ccccc2F)nc1,GI50,RKO,> 10 µM
same,half-life,[1],> 2 h
